SMILES strings stand for the structures.

Amino acid sequences for entries named in this document (tags omitted). A change or cut given only in a name is not applied to a line headed by its entry.
UniProt P48730: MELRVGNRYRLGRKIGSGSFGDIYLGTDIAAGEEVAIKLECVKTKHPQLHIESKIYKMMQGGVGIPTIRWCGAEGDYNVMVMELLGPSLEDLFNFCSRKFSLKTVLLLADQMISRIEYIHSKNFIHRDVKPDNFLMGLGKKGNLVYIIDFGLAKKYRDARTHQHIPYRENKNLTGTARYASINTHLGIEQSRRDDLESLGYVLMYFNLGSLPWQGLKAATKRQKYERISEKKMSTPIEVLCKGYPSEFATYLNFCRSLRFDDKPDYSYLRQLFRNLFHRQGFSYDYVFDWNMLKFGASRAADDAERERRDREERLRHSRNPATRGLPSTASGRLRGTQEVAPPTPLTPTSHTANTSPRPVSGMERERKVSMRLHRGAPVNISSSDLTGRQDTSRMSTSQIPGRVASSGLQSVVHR
UniProt P49674: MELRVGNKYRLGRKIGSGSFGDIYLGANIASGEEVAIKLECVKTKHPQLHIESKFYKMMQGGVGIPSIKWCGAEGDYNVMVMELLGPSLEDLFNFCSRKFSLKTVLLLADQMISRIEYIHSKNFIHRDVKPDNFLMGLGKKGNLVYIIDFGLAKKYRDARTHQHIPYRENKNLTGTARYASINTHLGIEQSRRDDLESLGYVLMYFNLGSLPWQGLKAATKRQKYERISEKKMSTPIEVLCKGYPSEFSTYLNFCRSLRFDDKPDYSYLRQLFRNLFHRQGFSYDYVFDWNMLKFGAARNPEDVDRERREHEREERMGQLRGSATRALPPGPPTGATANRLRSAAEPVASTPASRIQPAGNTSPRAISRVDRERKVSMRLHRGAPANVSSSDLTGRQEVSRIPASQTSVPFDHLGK

One assay addresses CK1δ (Homo sapiens (Human), UniProt P48730). Kind of assay: CK1δ kinase assay (Caliper LABCHIP electrophoretic separation of fluoresceinated peptide substrate and product). As to conditions: CK1δ (IC50, nM), 200 pM CK1δ, 50 μM ATP, 1.5 μM peptide substrate, 22 hours at room temperature.
Another assay addresses CK1ε (Homo sapiens (Human), UniProt P49674). Kind of assay: CK1ε kinase assay (Caliper LABCHIP electrophoretic separation of fluoresceinated peptide substrate and product). As to conditions: CK1ε (IC50, nM), 200 pM CK1ε, 50 μM ATP, 1.5 μM peptide substrate, 22 hours at room temperature.

As for `N#Cc1ccc(NC(=O)N2Cc3c(C(N)=O)c(-c4cccc(F)c4)nn3C(CF)C2)cc1` (single isomer, unassigned) [Compound A76, N^5-(4-Cyanophenyl)-7-(fluoromethyl)-2-(3-fluorophenyl)-6,7-dihydropyrazolo[1,5-a]pyrazine-3,5(4H)-dicarboxamide], the 50% inhibitory concentration (IC50) on CK1δ fell in the range of 10 to 100 nM. In turn, `N#Cc1ccc(NC(=O)N2Cc3c(C(N)=O)c(-c4ccc(F)c(Cl)c4)nn3C(C(F)(F)F)C2)cc1` (single isomer, unassigned) [Compound A84, 2-(3-Chloro-4-fluorophenyl)-N^5-(4-cyanophenyl)-7-(trifluoromethyl)-6,7-dihydropyrazolo[1,5-a]pyrazine-3,5(4H)-dicarboxamide] showed a half-maximal inhibitory concentration (IC50) at CK1ε of 10 to 100 nM.

Compound `CC(C)(C)[C@@H]1CN(C(=O)Nc2ccc(C#N)cc2)Cc2c(C(N)=O)c(-c3ccc(F)c(Cl)c3)nn21` [Compound A81, 7-(tert-Butyl)-2-(3-chloro-4-fluorophenyl)-N-(4-cyanophenyl)-6,7-dihydropyrazolo[1,5-a]pyrazine-3,5(4H)-dicarboxamide] gave an IC50 against CK1ε of 10 to 100 nM.

Source of the values: patent publication US9598423B2 (dated 2017).
